The numbers were not newly measured in PubChem BioAssay AID1811 (Shanghai Institute of Organic Chemistry, 2009), which cites them from elsewhere.

The other results are listed elsewhere or left out. The source made the active and inactive calls. Where no limit is named, active and inactive come without a cut-off here.

For the series, the system named is 1ZXV A. Put plainly: PubChem AID 1811. Particulars: PDB complex binding affinities from literature.

`O=C(O)CCN1C(=O)/C(=C\c2ccc(-c3ccc(Cl)cc3)o2)SC1=S`: the compound was classed as active.
